Values quoted from earlier work, collected in publication PMC8070514, “Antibacterial and Antibiofilm Activities of Novel Antimicrobial Peptides against Multidrug-Resistant Enterotoxigenic Escherichia Coli” (International Journal of Molecular Sciences, 2021).

Tested on: ETEC adhesion to human colorectal cancer cell Caco-2
Settings: by blocking CFA/I cilia on ETEC; cited from earlier work

histatin-5
Effect on ETEC adhesion to Caco-2: reduces the number of ETEC adhesion
